Molecules are shown by their SMILES. Toxic doses and inconclusive results are not listed.

In the assay the test system is AKR/Lw mice, AKR lymphoma ip, median survival T/C. Description: NCI In Vivo Anticancer Drug Screen. Data for tumor model Lymphoma AKR (Transplanted) (intraperitoneal) in AKR/Lw mice. The conditions noted are these: endpoint: median survival time, vehicle: saline, higher = longer survival. As to the method: The antitumor activity of compounds was measured in mice bearing transplantable tumors. Survival or tumor size were measured and the results are expressed as the measurement made in the treated group (T) divided by the measurement made in the vehicle treated control group (C). The tumor model used in this assay is Lymphoma AKR (Transplanted) (intraperitoneal) in AKR/Lw mice

With `CN(Cc1cnc2nc(N)nc(N)c2n1)c1ccc(C(=O)N[C@@H](CCC(=O)O)C(=O)O)cc1`, the T/C reads like this: (dose: 0.75 mg/kg/injection, schedule: Q01DX009 (ip)) 121 % of control; (dose: 12.0 mg/kg/injection, schedule: Q04DX004 (ip)) 153 % of control; (dose: 20.0 mg/kg/injection, schedule: Q01DX001 (ip)) 121 % of control.

(Values after PubChem BioAssay AID190 (DTP/NCI, 2004).)
